pIC50: −log10 of the molar value.
Molecular target: Cyclin-dependent kinase 5/CDK5 activator 1 (Homo sapiens, UniProt Q00535)
Type: protein-complex assay

Chains of the proteins cited; added tags and fusions are not shown.
UniProt Q00535, whole entry: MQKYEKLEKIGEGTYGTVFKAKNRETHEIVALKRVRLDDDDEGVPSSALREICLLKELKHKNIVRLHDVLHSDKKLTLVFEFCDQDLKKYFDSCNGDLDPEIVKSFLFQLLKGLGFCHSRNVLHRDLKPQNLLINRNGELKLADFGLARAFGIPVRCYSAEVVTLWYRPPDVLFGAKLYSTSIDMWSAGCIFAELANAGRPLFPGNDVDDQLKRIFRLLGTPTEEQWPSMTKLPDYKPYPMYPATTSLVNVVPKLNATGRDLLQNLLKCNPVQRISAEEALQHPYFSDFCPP

`COc1ccc2c(c1)[nH]c1c(C)nccc12` [HARMINE] was tested, and the pIC50 was < 5.00.
